We go through one substance from patent publication US10918657B2 (priority 2013, dated 2021).

Assay type in all cases: in vivo, Petromyzon marinus
Assay [1] has as its system giant reticulospinal (RS) neurons. As to the kind of experiment: Synuclein immunofluorescence in giant RS neurons after spinal cord transection. The settings on record: morpholino 10 μg at time and site of transection; 11 weeks post-transection; mean±S.E.M.
For assay [2] the test system is unchanged. As to the kind of experiment: Nissl staining of giant RS neurons (neuronal survival) after spinal cord transection. The settings on record: morpholino 10 μg; 11 weeks post-transection; mean±S.E.M.
A further assay relates to giant RS axons. Put plainly: NF-180 immunolabeled axon count (axon regeneration) after spinal cord transection. To be noted: morpholino 10 μg; 11 weeks post-injury; ventral half of spinal cord.

Take 5′-CGCGTCCATTCCTCTTTCTTTGTCT-3′: in assay [1], the “synuclein immunofluorescence intensity in good survivors” value is 17.7±1.4 AU and the “synuclein immunofluorescence intensity in poor survivors” value was found to be 26.5±2.5 AU. Besides, in assay [2], the “survival of the giant RS neurons at the population level (Nissl (+))” value turned out to be 72.1±3.2. In addition, in the assay with giant RS axons, the “increase in number of NF-180 labeled axons proximal, within, and distal to the lesion” value amounted to 2 fold.
